The values below come from PubChem BioAssay AID449768 (Vanderbilt High Throughput Screening Facility, 2010).

Protein sequences, listed by entry. Tags and fused reporters are not part of them.
UniProt Q01959, whole entry: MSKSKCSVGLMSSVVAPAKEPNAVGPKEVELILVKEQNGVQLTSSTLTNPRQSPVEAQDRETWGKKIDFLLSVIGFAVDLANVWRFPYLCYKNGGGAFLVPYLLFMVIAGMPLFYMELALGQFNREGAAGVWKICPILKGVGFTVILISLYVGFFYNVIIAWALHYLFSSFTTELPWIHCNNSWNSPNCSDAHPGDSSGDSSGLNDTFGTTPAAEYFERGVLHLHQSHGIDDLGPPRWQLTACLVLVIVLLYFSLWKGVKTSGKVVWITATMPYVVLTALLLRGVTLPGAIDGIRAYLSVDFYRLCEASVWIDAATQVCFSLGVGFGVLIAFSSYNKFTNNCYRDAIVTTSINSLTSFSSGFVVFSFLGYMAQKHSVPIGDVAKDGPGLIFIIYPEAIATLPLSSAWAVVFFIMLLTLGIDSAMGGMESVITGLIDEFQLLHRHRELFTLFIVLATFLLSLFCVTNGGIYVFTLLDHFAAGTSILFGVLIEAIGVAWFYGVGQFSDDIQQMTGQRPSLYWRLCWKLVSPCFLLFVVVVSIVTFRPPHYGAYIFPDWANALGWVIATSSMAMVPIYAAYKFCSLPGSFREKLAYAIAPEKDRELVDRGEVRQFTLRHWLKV

The entries are a selection whose mix differs from that of the whole data set. Some tests of the compounds listed are not included; inactive here does not mean inactive elsewhere. The source made the active and inactive calls.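 The calls were made as follows: active = Z score or B-score, a plate-position-corrected score, falls beyond the plate's 99.7% confidence bounds, in either direction; inactive = both scores lie inside the 99.7% bounds.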

For the assay, the target named is Sodium-dependent dopamine transporter (Homo sapiens) (UniProt Q01959). Briefly: changed hDAT dopamine uptake under cocaine IC80, either direction, primary screen, cocaine antagonist project, cell-based, LLC-PK1 hDAT, [14C]-dopamine uptake, MLSMR (AID 449768).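 Also: scored against the spread of the other compound wells on the same plate.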 To be noted: LLC-PK1 hDAT cells, [14C]-dopamine uptake with cocaine IC80; at 10 µM; actives deviate in either direction.
Take `CC(C)N1C(=O)CC2(CCN(CCOC(=O)C(O)(c3ccccc3)c3ccccc3)CC2)C1=O`: the B-score is inactive: -0.529.

As to `O=C(OC1CN2CCC1CC2)C(CO)(c1ccccc1)c1ccccc1` (stereo not drawn), the B-score was inactive: -0.262.

Consider `CN(C)c1cccc(C(=O)NCC2(N(C)C)CCCCC2)c1`, for which the B-score was inactive: -0.348.
